Assay results as given in patent US20120263714A1, “SUBSTITUTED HALOPHENOXYBENZAMIDE DERIVATIVES” (BAYER INTELLECTUAL PROPERTY GMBH, priority 2009, published 2012).

Assay: Distribution between blood and plasma, blood/plasma ratio (Assay 7)
Format: in vitro ADME, human
Settings: statement in text on the blood/plasma data

NC(=O)c1c(Oc2cccc(CNS(N)(=O)=O)c2)cc(F)c(F)c1Nc1ccc(I)cc1F [Example 1, 3,4-difluoro-2-[(2-fluoro-4-iodophenyl)amino]-6-{3-[(sulfamoylamino)methyl]phenoxy}benzamide]
accumulation in human blood cells: does not show accumulation in human blood cells
